30 molecules from PubChem BioAssay AID2071 (Sanford-Burnham Center for Chemical Genomics, 2009) can be followed below.

Only a part is listed here, and it is no random draw. The source made the active and inactive calls. No stated cut-off is given here; in the data, active means inhibition mostly above about 24% (no sharp cut-off); inactive means mostly below about 32%.

As usually defined, the inhibition is the relative decrease from the control value, in per cent.

This experiment in a line: NALP1 inflammasome inhibitors in reconstituted yeast, colorimetric, S. cerevisiae, triplicate retest (AID 2071). The conditions noted are these: S. cerevisiae NALP1/ASC/caspase-1 growth, X-gal OD620, 72 h; at 10 µM; stronger effect = higher value.
For the molecule `O=P1(Nc2ncccn2)COc2ccccc2OC1`, the inhibition was inactive: 8.7%.

Take `Nc1cccc([As](=O)(O)c2ccccc2)c1`: the inhibition was inactive: -12.2%.

In the case of `O=[As](O)(c1cccs1)c1cccs1`, the inhibition is inactive: -19.6%.

With `Cc1ccc(OCC(=O)OC2CN3CCC2CC3)cc1` (stereo not given), the inhibition is inactive: 13.1%.

As to `O=P1(Nc2ccc(Br)cn2)COc2ccccc2OC1`, the inhibition was inactive: 2.9%.

Regarding `CC1CCC(C(C)C)C(OP(=O)(Nc2ccccn2)c2ccccc2)C1` (stereo not given), the inhibition is inactive: -4.9%.

On to `Cc1ccc(C(=O)OC2CN3CCC2CC3)cc1` (stereo not given), for which the inhibition is inactive: 12%.

On to `Cc1nn(-c2ccccc2)c2c1P(=O)(N1CCOCC1)N(C)C(c1ccccc1)=N2` (stereo not given), for which the inhibition was inactive: -0.1%.

As for `CN(C)C1(CNC(=O)c2ccc(S(C)(=O)=O)cc2)CCCCC1`, the inhibition was inactive: 15.5%.

In the case of `O=C(/C=C/c1ccccc1)OC1CN2CCC1CC2` (stereo not given), the inhibition was inactive: 14.9%.

Regarding `CC(C)/C=N\N=C(\N)N[N+](=O)[O-]`, the inhibition is inactive: -20.4%.

With `CN(C(=O)Cc1ccc(Cl)c(Cl)c1)[C@@H]1CCCC[C@H]1N1CCCC1`, the inhibition was inactive: 12.9%.

For the molecule `O=[As](O)(c1ccccc1Br)c1ccccc1Br`, the inhibition is inactive: 18.1%.

With `CCOP(=O)(NC(=NC(C)c1ccccc1)NC(C)c1ccccc1)OCC` (stereo not given), the inhibition is inactive: 7.8%.

Turning to `O=P1(Nc2ccccn2)COc2ccccc2OC1`, the inhibition is inactive: 0.1%.

For the molecule `CCC1=CC2Cc3nc4ccc(Cl)cc4c(N)c3C(C1)C2` (stereo not given), the inhibition is inactive: 20.4%.

For the molecule `CCOP(=O)(Nc1ccc(C)cn1)OCC`, the inhibition was inactive: -10%.

Turning to `CC(C)(C)C(=O)NC(Sc1ncccn1)C(Cl)(Cl)Cl` (stereo not given), the inhibition is inactive: -7.3%.

With `Clc1n[nH]nc1-c1nn[nH][15n]1`, the inhibition is inactive: -16.7%.

Turning to `Nc1cccc2c([As](=O)(O)O)cccc12`, the inhibition was inactive: 6%.

For `Cc1ccc(NCCc2c([N+](=O)[O-])cc([N+](=O)[O-])cc2[N+](=O)[O-])cc1`, the inhibition was inactive: 24.3%.

`CCCOP(=S)(Nc1nc(N)cc(=O)[nH]1)OCCC`: the inhibition is inactive: -3%.

Regarding `CCOP(=O)(Nc1cccc2ccccc12)OCC`, the inhibition is inactive: 20.4%.

Take `COc1cc(C2NCCC3(OCCO3)C2(C)C)cc(OC)c1OC` (stereo not given): the inhibition is inactive: 17.4%.

As to `O=C(OC1CN2CCC1CC2)c1ccc(Cl)cc1` (stereo not given), the inhibition was inactive: 5%.

As for `CS(=O)(=O)c1ccc(Cl)c(NC(=O)COC(=O)C(O)(c2ccccc2)c2ccccc2)c1`, the inhibition is inactive: -2.7%.

With `O=[As](O)(O)c1cccnc1`, the inhibition was inactive: -0.3%.

As to `COc1cc(C(=O)NCC2(N3CCOCC3)CCCCC2)cc(Cl)c1OC(C)C`, the inhibition was inactive: 7.2%.

For the molecule `O=[As](O)(c1cccc(O)c1)c1cccc(O)c1`, the inhibition is inactive: 3.1%.

As to `NC(=O)Nc1ccc([As](=O)(O)O)cc1`, the inhibition is inactive: -1.9%.
